From patent US20050025822A1, “Method of pulmonary administration of an agent” (priority 2003, published 2005)

Test: In vivo delivery of liposomal ciprofloxacin via tracheal infusion (plasma and lung concentration)
Details: rats, 48 hours after intratracheal instillation

**Q.** For `O=C(O)c1cn(C2CC2)c2cc(N3CCNCC3)c(F)cc2c1=O` [free ciprofloxacin, ciprofloxacin], which “concentration of ciprofloxacin in the lungs (in words)” value is on record?
**A.** Its value is “low amount of ciprofloxacin was recovered in the lung tissue”.
